# Values quoted from earlier work in patent US20230270635A1, “METHODS AND COMPOSITIONS FOR COSMETIC APPLICATIONS” (GLO Pharma, Inc., priority 2021, published 2023).
# Settings: non-ionic surfactants with HLB of 10 or less, Table 1
substance,measurement,value
PEG-4 laurate,HLB,HLB = 9
